Target: human BACE1 extracellular domain, amino acids 1-457 of SEQ ID NO:49 (human) (UniProt P56817)
Experiment: cell-based or functional assay

Chains of the proteins cited; added tags and fusions are not shown. Lines headed by an entry give the natural chain unless they say otherwise; changes in a name come on top. Residues count along the entry.
UniProt P56817, 22-457: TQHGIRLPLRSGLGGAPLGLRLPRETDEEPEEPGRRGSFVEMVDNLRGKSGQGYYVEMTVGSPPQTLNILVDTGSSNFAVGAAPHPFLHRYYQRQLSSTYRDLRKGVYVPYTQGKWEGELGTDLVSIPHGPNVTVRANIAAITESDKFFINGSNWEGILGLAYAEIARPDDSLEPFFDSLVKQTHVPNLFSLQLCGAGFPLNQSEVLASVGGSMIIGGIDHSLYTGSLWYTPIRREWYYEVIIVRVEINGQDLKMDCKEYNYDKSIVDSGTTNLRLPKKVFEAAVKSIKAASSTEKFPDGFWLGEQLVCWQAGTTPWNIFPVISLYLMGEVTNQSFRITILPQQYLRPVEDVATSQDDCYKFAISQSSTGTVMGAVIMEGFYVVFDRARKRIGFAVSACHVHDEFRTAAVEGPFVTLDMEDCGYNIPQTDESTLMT

IC50, HTRF enzyme activity assay: 11 nM
Substance: OM99-2 (CalBiochem, catalog #496000) (peptide)

— patent publication US20140286963A1
